Data as given in ChEMBL document CHEMBL1155952, “4-Amino-6-arylamino-pyrimidine-5-carbaldehyde hydrazones as potent ErbB-2/EGFR dual kinase inhibitors” (Bioorg Med Chem Lett, 2008).

The chains behind the UniProt entries cited, without tags or fusion partners.
UniProt P00533, whole entry: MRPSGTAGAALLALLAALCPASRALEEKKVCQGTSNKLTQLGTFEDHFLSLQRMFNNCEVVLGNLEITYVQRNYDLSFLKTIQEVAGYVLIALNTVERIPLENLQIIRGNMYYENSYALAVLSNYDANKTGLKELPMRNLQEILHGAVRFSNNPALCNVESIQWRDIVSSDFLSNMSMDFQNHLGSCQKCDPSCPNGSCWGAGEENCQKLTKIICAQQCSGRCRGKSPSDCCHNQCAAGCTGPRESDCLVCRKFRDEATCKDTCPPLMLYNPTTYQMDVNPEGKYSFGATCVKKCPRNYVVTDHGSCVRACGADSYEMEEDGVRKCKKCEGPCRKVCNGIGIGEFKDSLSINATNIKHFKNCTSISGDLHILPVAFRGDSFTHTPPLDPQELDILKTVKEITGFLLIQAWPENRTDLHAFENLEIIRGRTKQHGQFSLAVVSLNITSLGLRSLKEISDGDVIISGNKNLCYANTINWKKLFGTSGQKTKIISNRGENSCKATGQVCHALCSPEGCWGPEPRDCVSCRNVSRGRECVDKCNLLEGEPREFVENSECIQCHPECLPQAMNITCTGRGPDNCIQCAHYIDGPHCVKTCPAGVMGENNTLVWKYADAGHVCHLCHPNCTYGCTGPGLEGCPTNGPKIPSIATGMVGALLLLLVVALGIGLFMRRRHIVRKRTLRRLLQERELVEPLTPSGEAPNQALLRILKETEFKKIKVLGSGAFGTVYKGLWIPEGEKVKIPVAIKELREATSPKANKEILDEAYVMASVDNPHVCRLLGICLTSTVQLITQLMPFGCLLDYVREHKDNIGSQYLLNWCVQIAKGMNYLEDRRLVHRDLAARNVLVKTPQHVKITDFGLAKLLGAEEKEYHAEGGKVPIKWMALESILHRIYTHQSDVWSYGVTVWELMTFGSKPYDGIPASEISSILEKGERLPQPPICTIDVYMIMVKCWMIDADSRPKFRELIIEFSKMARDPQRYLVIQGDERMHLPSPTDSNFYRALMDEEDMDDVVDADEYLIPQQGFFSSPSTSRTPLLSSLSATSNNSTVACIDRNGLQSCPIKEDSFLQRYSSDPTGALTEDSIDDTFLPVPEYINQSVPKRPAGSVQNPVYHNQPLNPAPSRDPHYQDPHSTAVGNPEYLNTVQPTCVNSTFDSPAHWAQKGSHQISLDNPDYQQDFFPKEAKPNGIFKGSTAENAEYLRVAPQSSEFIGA

Target: Epidermal growth factor receptor (Homo sapiens, UniProt P00533)
Test: Inhibition of human EGFR expressed in SF9 cells

IC50: 30 nM
SMILES: Nc1ncnc(Nc2ccc3c(cnn3Cc3cccc(F)c3)c2)c1/C=N/N1CCCCC1
